# In IntAct's records for PubMed 35512704:
# B1: RAC-alpha serine/threonine-protein kinase (Homo sapiens), P31749 (parent)
# chain: MSDVAIVKEGWLHKRGEYIKTWRPRYFLLKNDGTFIGYKERPQDVDQREAPLNNFSVAQCQLMKTERPRPNTFIIRCLQWTTVIERTFHVETPEEREEWTTAIQTVADGLKKQEEEEMDFRSGSPSDNSGAEEMEVSLAKPKHRVTMNEFEYLKLLGKGTFGKVILVKEKATGRYYAMKILKKEVIVAKDEVAHTLTENRVLQNSRHPFLTALKYSFQTHDRLCFVMEYANGGELFFHLSRERVFSEDRARFYGAEIVSALDYLHSEKNVVYRDLKLENLMLDKDGHIKITDFGLCKEGIKDGATMKTFCGTPEYLAPEVLEDNDYGRAVDWWGLGVVMYEMMCGRLPFYNQDHEKLFELILMEEIRFPRTLGPEAKSLLSGLLKKDPKQRLGGGSEDAKEIMQHRFFAGIVWQHVYEKKLSPPFKPQVTSETDTRYFDEEFTAQMITITPPDQDDSMECVDSERRPHFPQFSYSASGTA
# partner: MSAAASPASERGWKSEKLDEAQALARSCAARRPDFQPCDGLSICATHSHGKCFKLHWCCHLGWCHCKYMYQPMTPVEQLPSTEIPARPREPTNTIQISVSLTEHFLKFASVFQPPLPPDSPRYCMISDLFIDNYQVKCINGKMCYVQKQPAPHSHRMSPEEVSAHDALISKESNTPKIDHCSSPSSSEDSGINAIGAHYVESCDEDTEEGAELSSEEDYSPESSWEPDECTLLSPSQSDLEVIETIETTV
# B2: RAC-alpha serine/threonine-protein kinase (Homo sapiens), P31749 (parent)
# chain: B1 chain
# partner: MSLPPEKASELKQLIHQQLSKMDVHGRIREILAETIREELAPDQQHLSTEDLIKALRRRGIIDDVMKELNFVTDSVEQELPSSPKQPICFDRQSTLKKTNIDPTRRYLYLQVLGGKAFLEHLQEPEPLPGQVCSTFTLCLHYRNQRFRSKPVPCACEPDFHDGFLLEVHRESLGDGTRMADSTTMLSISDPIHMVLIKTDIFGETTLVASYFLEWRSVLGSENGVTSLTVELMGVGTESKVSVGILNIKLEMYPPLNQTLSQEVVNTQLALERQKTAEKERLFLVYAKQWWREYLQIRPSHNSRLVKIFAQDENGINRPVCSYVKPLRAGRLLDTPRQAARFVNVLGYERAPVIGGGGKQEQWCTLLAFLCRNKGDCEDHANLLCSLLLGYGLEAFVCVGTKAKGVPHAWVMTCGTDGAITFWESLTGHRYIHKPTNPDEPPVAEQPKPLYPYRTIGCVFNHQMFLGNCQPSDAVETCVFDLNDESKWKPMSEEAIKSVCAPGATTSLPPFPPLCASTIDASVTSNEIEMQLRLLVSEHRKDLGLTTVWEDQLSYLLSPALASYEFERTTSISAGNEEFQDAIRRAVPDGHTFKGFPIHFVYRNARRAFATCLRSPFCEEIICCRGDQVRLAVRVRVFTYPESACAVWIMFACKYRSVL
# B3: RAC-alpha serine/threonine-protein kinase (Homo sapiens), P31749 (parent)
# chain: B1 chain
# partner: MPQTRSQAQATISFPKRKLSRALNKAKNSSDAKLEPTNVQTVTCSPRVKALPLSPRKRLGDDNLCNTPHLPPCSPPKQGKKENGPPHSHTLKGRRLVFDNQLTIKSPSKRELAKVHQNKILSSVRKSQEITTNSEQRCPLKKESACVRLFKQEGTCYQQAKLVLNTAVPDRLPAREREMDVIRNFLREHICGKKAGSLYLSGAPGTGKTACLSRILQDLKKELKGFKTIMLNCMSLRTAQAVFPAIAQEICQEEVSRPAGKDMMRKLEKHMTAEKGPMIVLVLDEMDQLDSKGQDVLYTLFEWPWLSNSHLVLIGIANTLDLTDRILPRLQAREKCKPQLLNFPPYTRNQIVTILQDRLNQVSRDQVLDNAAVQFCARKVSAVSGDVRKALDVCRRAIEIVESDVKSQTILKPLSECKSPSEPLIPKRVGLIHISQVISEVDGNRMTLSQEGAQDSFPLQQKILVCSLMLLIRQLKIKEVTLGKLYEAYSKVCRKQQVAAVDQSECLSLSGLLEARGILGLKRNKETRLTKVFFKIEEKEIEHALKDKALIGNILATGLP
# B4: RAC-alpha serine/threonine-protein kinase (Homo sapiens), P31749 (parent)
# chain: B1 chain
# partner: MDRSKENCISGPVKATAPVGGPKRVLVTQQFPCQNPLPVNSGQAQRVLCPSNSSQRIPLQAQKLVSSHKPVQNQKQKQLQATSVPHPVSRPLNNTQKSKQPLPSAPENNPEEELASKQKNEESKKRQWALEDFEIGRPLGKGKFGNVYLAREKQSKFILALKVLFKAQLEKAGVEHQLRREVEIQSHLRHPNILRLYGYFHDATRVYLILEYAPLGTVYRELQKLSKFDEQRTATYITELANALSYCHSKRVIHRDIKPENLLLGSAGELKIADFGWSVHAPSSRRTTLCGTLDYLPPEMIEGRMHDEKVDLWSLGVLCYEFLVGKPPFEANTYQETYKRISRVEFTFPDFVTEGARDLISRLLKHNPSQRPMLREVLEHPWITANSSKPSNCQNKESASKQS
# B5: RAC-alpha serine/threonine-protein kinase (Homo sapiens), P31749 (parent)
# chain: B1 chain
# partner: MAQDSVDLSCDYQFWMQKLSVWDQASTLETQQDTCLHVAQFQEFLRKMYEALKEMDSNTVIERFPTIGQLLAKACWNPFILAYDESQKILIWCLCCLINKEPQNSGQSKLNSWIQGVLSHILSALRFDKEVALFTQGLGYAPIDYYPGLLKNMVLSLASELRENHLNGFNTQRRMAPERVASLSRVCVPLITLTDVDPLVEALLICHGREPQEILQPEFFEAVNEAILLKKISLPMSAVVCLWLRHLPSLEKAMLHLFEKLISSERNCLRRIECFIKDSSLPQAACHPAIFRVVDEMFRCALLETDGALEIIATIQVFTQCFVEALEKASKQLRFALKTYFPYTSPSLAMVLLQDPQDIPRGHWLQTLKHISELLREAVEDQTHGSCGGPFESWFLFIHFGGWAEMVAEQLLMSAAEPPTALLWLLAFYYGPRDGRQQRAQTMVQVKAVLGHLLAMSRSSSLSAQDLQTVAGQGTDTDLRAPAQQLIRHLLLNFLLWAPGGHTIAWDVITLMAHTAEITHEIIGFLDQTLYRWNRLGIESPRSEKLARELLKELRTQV
# Variants of: B1
# Conditions: with cc070_human C3orf70, A6NLC5
row,effect of a mutation on the interaction,Variant
1,with no effect,MSDVAIVKEGWLHKRGKYIKTWRPRYFLLKNDGTFIGYKERPQDVDQREAPLNNFSVAQCQLMKTERPRPNTFIIRCLQWTTVIERTFHVETPEEREEWTTAIQTVADGLKKQEEEEMDFRSGSPSDNSGAEEMEVSLAKPKHRVTMNEFEYLKLLGKGTFGKVILVKEKATGRYYAMKILKKEVIVAKDEVAHTLTENRVLQNSRHPFLTALKYSFQTHDRLCFVMEYANGGELFFHLSRERVFSEDRARFYGAEIVSALDYLHSEKNVVYRDLKLENLMLDKDGHIKITDFGLCKEGIKDGATMKTFCGTPEYLAPEVLEDNDYGRAVDWWGLGVVMYEMMCGRLPFYNQDHEKLFELILMEEIRFPRTLGPEAKSLLSGLLKKDPKQRLGGGSEDAKEIMQHRFFAGIVWQHVYEKKLSPPFKPQVTSETDTRYFDEEFTAQMITITPPDQDDSMECVDSERRPHFPQFSYSASGTA [E17K]

# Variants of: B2
# Conditions: with cep76_human CEP76, Q8TAP6
row,effect of a mutation on the interaction,Variant
1,with no effect,MSDVAIVKEGWLHKRGKYIKTWRPRYFLLKNDGTFIGYKERPQDVDQREAPLNNFSVAQCQLMKTERPRPNTFIIRCLQWTTVIERTFHVETPEEREEWTTAIQTVADGLKKQEEEEMDFRSGSPSDNSGAEEMEVSLAKPKHRVTMNEFEYLKLLGKGTFGKVILVKEKATGRYYAMKILKKEVIVAKDEVAHTLTENRVLQNSRHPFLTALKYSFQTHDRLCFVMEYANGGELFFHLSRERVFSEDRARFYGAEIVSALDYLHSEKNVVYRDLKLENLMLDKDGHIKITDFGLCKEGIKDGATMKTFCGTPEYLAPEVLEDNDYGRAVDWWGLGVVMYEMMCGRLPFYNQDHEKLFELILMEEIRFPRTLGPEAKSLLSGLLKKDPKQRLGGGSEDAKEIMQHRFFAGIVWQHVYEKKLSPPFKPQVTSETDTRYFDEEFTAQMITITPPDQDDSMECVDSERRPHFPQFSYSASGTA [E17K]

# Variants of: B3
# Conditions: with cdc6_human CDC6, Q99741
row,effect of a mutation on the interaction,Variant
1,with no effect,MSDVAIVKEGWLHKRGKYIKTWRPRYFLLKNDGTFIGYKERPQDVDQREAPLNNFSVAQCQLMKTERPRPNTFIIRCLQWTTVIERTFHVETPEEREEWTTAIQTVADGLKKQEEEEMDFRSGSPSDNSGAEEMEVSLAKPKHRVTMNEFEYLKLLGKGTFGKVILVKEKATGRYYAMKILKKEVIVAKDEVAHTLTENRVLQNSRHPFLTALKYSFQTHDRLCFVMEYANGGELFFHLSRERVFSEDRARFYGAEIVSALDYLHSEKNVVYRDLKLENLMLDKDGHIKITDFGLCKEGIKDGATMKTFCGTPEYLAPEVLEDNDYGRAVDWWGLGVVMYEMMCGRLPFYNQDHEKLFELILMEEIRFPRTLGPEAKSLLSGLLKKDPKQRLGGGSEDAKEIMQHRFFAGIVWQHVYEKKLSPPFKPQVTSETDTRYFDEEFTAQMITITPPDQDDSMECVDSERRPHFPQFSYSASGTA [E17K]

# Variants of: B4
# Conditions: with aurka_human AURKA
row,effect of a mutation on the interaction,Variant
1,with no effect,MSDVAIVKEGWLHKRGKYIKTWRPRYFLLKNDGTFIGYKERPQDVDQREAPLNNFSVAQCQLMKTERPRPNTFIIRCLQWTTVIERTFHVETPEEREEWTTAIQTVADGLKKQEEEEMDFRSGSPSDNSGAEEMEVSLAKPKHRVTMNEFEYLKLLGKGTFGKVILVKEKATGRYYAMKILKKEVIVAKDEVAHTLTENRVLQNSRHPFLTALKYSFQTHDRLCFVMEYANGGELFFHLSRERVFSEDRARFYGAEIVSALDYLHSEKNVVYRDLKLENLMLDKDGHIKITDFGLCKEGIKDGATMKTFCGTPEYLAPEVLEDNDYGRAVDWWGLGVVMYEMMCGRLPFYNQDHEKLFELILMEEIRFPRTLGPEAKSLLSGLLKKDPKQRLGGGSEDAKEIMQHRFFAGIVWQHVYEKKLSPPFKPQVTSETDTRYFDEEFTAQMITITPPDQDDSMECVDSERRPHFPQFSYSASGTA [E17K]

# Variants of: B5
# Conditions: with fancc_human FANCC
row,effect of a mutation on the interaction,Variant
1,causing an interaction,MSDVAIVKEGWLHKRGKYIKTWRPRYFLLKNDGTFIGYKERPQDVDQREAPLNNFSVAQCQLMKTERPRPNTFIIRCLQWTTVIERTFHVETPEEREEWTTAIQTVADGLKKQEEEEMDFRSGSPSDNSGAEEMEVSLAKPKHRVTMNEFEYLKLLGKGTFGKVILVKEKATGRYYAMKILKKEVIVAKDEVAHTLTENRVLQNSRHPFLTALKYSFQTHDRLCFVMEYANGGELFFHLSRERVFSEDRARFYGAEIVSALDYLHSEKNVVYRDLKLENLMLDKDGHIKITDFGLCKEGIKDGATMKTFCGTPEYLAPEVLEDNDYGRAVDWWGLGVVMYEMMCGRLPFYNQDHEKLFELILMEEIRFPRTLGPEAKSLLSGLLKKDPKQRLGGGSEDAKEIMQHRFFAGIVWQHVYEKKLSPPFKPQVTSETDTRYFDEEFTAQMITITPPDQDDSMECVDSERRPHFPQFSYSASGTA [E17K]

# Variants of: B5
# Conditions: with fancc_human FANCC
# Remark: another data set of the same source
row,effect of a mutation on the interaction,Variant
1,increasing interaction strength,MSDVAIVKEGWLHKRGKYIKTWRPRYFLLKNDGTFIGYKERPQDVDQREAPLNNFSVAQCQLMKTERPRPNTFIIRCLQWTTVIERTFHVETPEEREEWTTAIQTVADGLKKQEEEEMDFRSGSPSDNSGAEEMEVSLAKPKHRVTMNEFEYLKLLGKGTFGKVILVKEKATGRYYAMKILKKEVIVAKDEVAHTLTENRVLQNSRHPFLTALKYSFQTHDRLCFVMEYANGGELFFHLSRERVFSEDRARFYGAEIVSALDYLHSEKNVVYRDLKLENLMLDKDGHIKITDFGLCKEGIKDGATMKTFCGTPEYLAPEVLEDNDYGRAVDWWGLGVVMYEMMCGRLPFYNQDHEKLFELILMEEIRFPRTLGPEAKSLLSGLLKKDPKQRLGGGSEDAKEIMQHRFFAGIVWQHVYEKKLSPPFKPQVTSETDTRYFDEEFTAQMITITPPDQDDSMECVDSERRPHFPQFSYSASGTA [E17K]
